Measurements taken from patent US20170247459A1, “COMBINATION THERAPY OF ANTIBODIES AGAINST HUMAN CSF-1R AND USES THEREOF” (HOFFMANN-LA ROCHE INC., priority 2012, published 2017).
Positions count from the first letter of the chain named. “Also recorded” adds a separate entry of the source. One block for each molecule: values may come before it.

The chains behind the UniProt entries cited, without tags or fusion partners. A line that says so, or that is headed by a name, gives the form on record, which may keep a tag or linker. Residues count along the entry.
UniProt P07333, with tags, fused parts or gaps DEL295-399: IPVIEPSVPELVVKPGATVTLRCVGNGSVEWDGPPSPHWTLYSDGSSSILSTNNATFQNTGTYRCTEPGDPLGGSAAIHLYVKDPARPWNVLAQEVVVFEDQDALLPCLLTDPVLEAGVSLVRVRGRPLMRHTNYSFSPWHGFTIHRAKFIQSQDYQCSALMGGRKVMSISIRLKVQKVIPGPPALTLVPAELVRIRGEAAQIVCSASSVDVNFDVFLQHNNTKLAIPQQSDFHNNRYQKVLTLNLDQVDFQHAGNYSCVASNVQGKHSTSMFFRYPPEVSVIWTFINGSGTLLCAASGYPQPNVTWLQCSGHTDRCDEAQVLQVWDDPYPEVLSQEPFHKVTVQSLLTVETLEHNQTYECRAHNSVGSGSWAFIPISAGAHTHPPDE
UniProt P07333, 20-512: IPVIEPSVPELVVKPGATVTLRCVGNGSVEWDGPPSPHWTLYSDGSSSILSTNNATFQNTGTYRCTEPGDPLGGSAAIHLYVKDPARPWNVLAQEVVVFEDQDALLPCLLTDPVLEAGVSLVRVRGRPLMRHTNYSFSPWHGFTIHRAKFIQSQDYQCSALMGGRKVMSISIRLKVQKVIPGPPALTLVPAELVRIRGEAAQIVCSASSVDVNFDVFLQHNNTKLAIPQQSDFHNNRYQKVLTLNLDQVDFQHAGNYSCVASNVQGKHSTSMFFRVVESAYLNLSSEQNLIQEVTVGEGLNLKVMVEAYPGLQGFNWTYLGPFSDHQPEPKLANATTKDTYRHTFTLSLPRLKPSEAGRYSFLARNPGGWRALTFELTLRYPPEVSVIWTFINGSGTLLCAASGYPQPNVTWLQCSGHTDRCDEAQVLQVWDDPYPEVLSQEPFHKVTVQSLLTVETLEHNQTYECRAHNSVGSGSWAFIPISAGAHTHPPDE
UniProt P07333, 20-311: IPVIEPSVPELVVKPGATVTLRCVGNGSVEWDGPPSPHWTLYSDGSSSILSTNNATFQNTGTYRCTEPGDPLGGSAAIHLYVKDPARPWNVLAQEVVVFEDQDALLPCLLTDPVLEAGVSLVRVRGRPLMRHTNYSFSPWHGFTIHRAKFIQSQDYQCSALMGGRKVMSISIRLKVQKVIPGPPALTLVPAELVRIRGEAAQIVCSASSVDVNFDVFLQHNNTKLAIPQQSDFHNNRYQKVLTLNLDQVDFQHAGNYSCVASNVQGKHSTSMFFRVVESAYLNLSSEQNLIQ

What was measured:
[1] = target: T1, human CSF-1R fragment delD4 (Homo sapiens, UniProt P07333, DEL295-399); test: Binding to human CSF-1R fragment delD4 (SPR, binding signals as RU); conditions: Biacore sensogram
T1 construct: PreScission site - human IgG1 Fc - 6xHis (PreSc-hFc-His) (C, cleaved yes); made in house; host or cells: Hek293 FreeStyle suspension cells, transient transfection
Procedure: (§1) The “binding to human CSF-1R fragment delD4 (SEQ ID NO: 65) and to human CSF-1R Extracellular Domain (SEQ ID NO: 64)” as used herein is measured by a Surface Plasmon Resonance assay (Biacore assay) as described in Example 4. The human CSF-1R fragment delD4 (SEQ ID NO: 65) or human CSF-1R Extracellular Domain (SEQ ID NO: 64), respectively, are captured to the surface (each to a separate surface) and the test antibodies were added (each in a separate measurement) and the respective binding signals (Response Units (RU)) were determined. Reference signals (blank surface) were subtracted. If signals of nonbinding test antibodies were slightly below 0 the values were set as 0. Then the ratio of the respective binding signals (binding signal (RU) to human CSF-1R fragment delD4/binding signal (RU) to human CSF-1R Extracellular Domain (CSF-1R-ECD)) is determined. The antibodies according to the invention have a ratio of the binding signals (RU(delD4)/RU(CSF-1R-ECD) of 1:50 or lower, preferably of 1:100 or lower (the lower included end is 0 (e.g. if the RU is 0, then the ratio is 0:50 or 0:100)).
(§2) Determination of the Binding of Anti-CSF-1R Antibodies to Human CSF-1R Fragment delD4 and to Human CSF-1R Extracellular Domain (CSF-1R-ECD) (Binding Signals as Response Units (RU):
(§3) CSF-1R fragments were immobilized via amine coupling. To compare the binding of different anti-CSF-1R antibodies according to the invention one concentration of the test antibody was injected. Anti CSF-1R Mab3291 (R&D-Systems) and SC 2-4A5 (Santa Cruz Biotechnology, US—see also Sherr, C. J. et al., Blood 73 (1989) 1786-1793), was used as reference control, anti-CCR5 m<CCR5>Pz03.1C5 (deposited as DSM ACC 2683 on 18.08.2004 at DSMZ) as negative control, all under the same conditions as the anti-CSF-1R antibodies according to the invention.
(§4) Standard amine coupling according to the manufacturer's instructions: running buffer: PBS-T (Roche: 11 666 789+0.05% Tween20: 11 332 465), activation by mixture of EDC/NHS, injection of human CSF-1R fragment delD4 (comprising the extracellular subdomains D1-D3 and D5) (SEQ ID NO: 65) and human CSF-1R Extracellular Domain (CSF-1R-ECD) (comprising the extracellular subdomains D1-D5) (SEQ ID NO: 64) for 600 seconds at flow rate 10 μl/min; diluted in coupling buffer NaAc, pH 5.0, c=10 μg/mL; finally remaining activated carboxyl groups were blocked by injection of 1 M Ethanolamin.
(§5) Binding of <CSF-1R> Mab 2F11, Mab 2E10, Mab 3291 and Sc2-4A5 and Other Anti-CSF-1R Antibodies to Human CSF-1R Fragment delD4 and Human CSF-1R Extracellular Domain (CSF-1R-ECD) at 25° C.
(§6) Binding was measured at a flow rate of 30 μL/min by one injection of the analyte with concentration c=10 nM. […] Signals were measured by a report point 10 seconds after end of injection.

[2] = target: T2, human CSF-1R Extracellular Domain (CSF-1R-ECD) (Homo sapiens, UniProt P07333); test: Binding to human CSF-1R Extracellular Domain (SPR, binding signals as RU); conditions: Biacore sensogram
T2 construct: PreScission site - human IgG1 aa100-330 (Fc) - 6xHis (C); made in house; host or cells: Hek293 FreeStyle suspension cells, transient transfection
Procedure: as §1, §2, §3, §4, §5, §6

[3] = target: CSF-1R ECD (Homo sapiens, UniProt P07333); test: Biacore competition assay using the CSF-1R ECD; type: binding; conditions: data not shown
Excerpt: Thus the binding region of Mab 2F11/Mab 2E10 is clearly distinct from the binding region of Ab SC-2-4A5, but probably located in a vicinity area.

[4] = target: T3, human CSF-1R fragment D1-D3 (Homo sapiens, UniProt P07333); test: Binding to human CSF-1R fragment D1-D3 (SPR); conditions: for binding to human CSF-1R fragment D1-D3 (in words): SPR; for KD: fragment D1-D3, SPR single cycle kinetics, 37° C.
T3 construct: His-Avitag; made in house
Procedure: The term “binding to human CSF-1R fragment D1-D3” refers to a binding affinity determination by a Surface Plasmon Resonance assay (Biacore assay). The test antibody is captured to the surface and the human CSF-1R fragment D1-D3 (SEQ ID NO: 66) was added and the respective binding affinities were determined.
Determination of the Binding of Anti-CSF-1R Antibodies to Human CSF-1R Fragment D1-D3
Antibodies against CSF-1R were captured via amine coupled capture molecules.
Using the single cycle kinetics five increasing concentrations of human CSF-1R fragment D1-D3 (SEQ ID NO: 66) were injected. Human CSF-1R fragment D1-D3 was subcloned into pCMV-presS-HisAvitag expression vector.
Anti CSF-1R SC 2-4A5 (Santa Cruz Biotechnology, US; Sherr, C. J. et al., Blood 73 (1989) 1786-1793) which inhibits the ligand-receptor interaction, and Mab 3291 (R&D-Systems) were used as reference controls.
Capture molecules: Anti mouse Fcγ antibodies (from goat, Jackson Immuno Research JIR115-005-071) for antibodies according to the invention and the R&D-Systems control Mab 3291 and Anti rat Fcγ antibodies (from goat, Jackson Immuno Research JIR112-005-071) for the reference control anti CSF-1R SC 2-4A5.
Standard amine coupling according to the manufacturer's instructions: running buffer: HBS-N buffer, activation by mixture of EDC/NHS, aim for ligand density of 2000 RU; the capture-Abs were diluted in coupling buffer NaAc, pH 4.5, c=10 μg/mL; finally remaining activated carboxyl groups were blocked by injection of 1 M Ethanolamin.
Kinetic Characterization of Human CSF-1R Fragments D1-D3 Binding to MAbs <CSF-1R> at 37° C.
Running buffer: PBS (Biacore BR-1006-72) Capturing of Mabs <CSF-1R> on flow cells 2 to 4: Flow 20 μL/min, contact time 90 seconds, c(Abs<CSF-1R>)=50 nM, diluted with running buffer+1 mg/mL BSA; Analyte sample:
Single Cycle Kinetics was measured at a flow rate of 30 μL/min by five consecutive injections of the analyte with concentrations, c=7.8, 31.25, 125 500 and 2000 nM, without regeneration. Each injection was 30 seconds long and followed by a dissociation phase of 120 Seconds for the first four injections, and finally 1200 seconds for the highest concentration (=last injection).
Final regeneration was performed after each cycle using 10 mM Glycin pH 1.5 (Biacore BR-1003-54), contact time 60 seconds, flow rate 30 μL/min
Kinetic parameters were calculated by using the usual double referencing (control reference: binding of analyte to capture molecule; Flow Cell: subdomain CSF-1R concentration “0” as Blank) and calculation with model ‘titration kinetics 1:1 binding with draft’.

binding to CSF-1R-ECD (in words) [2]: showed binding
competition with Mab3291 from R&D-Systems [3]: did not compete
competition with the antibody Ab SC-2-4A5 [3]: some competition
binding to human CSF-1R fragment D1-D3 (in words) [4]: showed no binding
KD [4]: no binding
B1: Mab 2F11: murine monoclonal anti-human CSF-1R antibody, VH SEQ ID NO: 7, VL SEQ ID NO: 8 (antibody, listed as Mus musculus, V domains shown)
VH: QVQLKESGPGLVAPSQSLSITCTVSGFSLTTYDISWIRQSPGKGLEWLGVIWTDGGTNYNSPFMSRLSIRKDNSKSQVFLKMNRLQTDDTAIYYCVRDQRLYFDVWGAGTTVTVSS
VL: NIVMTQSPKSMSMSVGERVTLNCKASEDVNTYVSWYQQQPEQSPKLLIYGASNRYTGVPDRFTGGGSTTDFTLTISSVQAEDLADYFCGQSFSYPTFGTGTKLEIK
binding to CSF-1R fragment delD4 (in words) [1]: no binding was detected; also recorded: do not bind; also recorded: did not bind

binding to CSF-1R-ECD (in words) [2]: showed binding
competition with Mab3291 from R&D-Systems [3]: did not compete
competition with the antibody Ab SC-2-4A5 [3]: some competition
binding to human CSF-1R fragment D1-D3 (in words) [4]: showed no binding
KD [4]: no binding
B2: Mab 2E10: murine monoclonal anti-human CSF-1R antibody, VH SEQ ID NO: 15, VL SEQ ID NO: 16 (antibody, listed as Mus musculus, V domains shown)
VH: QVQLKESGPGLVAPSKSLSITCTVSGSSLDSFDISWIRQSPGKGLEWLGVIWTGGGTNYNSGFMSRLRITKDNSKSQVLLKMNSLQSDDTAIYYCVRDPRLYFDVWGAGTTVTVSS
VL: B1 VL with N22S, N30V, Q39K, E41D, G65S, T68A, F87Y, S91T
binding to CSF-1R fragment delD4 (in words) [1]: no binding was detected; also recorded: do not bind; also recorded: did not bind

binding to CSF-1R-ECD (in words) [2]: showed binding
B3: Mab 2H7: murine monoclonal anti-human CSF-1R antibody, VH SEQ ID NO: 83, VL SEQ ID NO: 84 (antibody, listed as Mus musculus, V domains shown)
VH: B2 VH with S40P, T70S, L79F, N83S
VL: B1 VL with N22S, N30V, Q39K, G65S, T68A, V78I, F87Y, S91T
binding to CSF-1R fragment delD4 (in words) [1]: no binding was detected; also recorded: did not bind

binding to CSF-1R-ECD (in words) [2]: showed binding
binding to human CSF-1R fragment D1-D3 (in words) [4]: showed no binding
KD [4]: no binding
B4: Mab 1G10: murine monoclonal anti-human CSF-1R antibody, VH SEQ ID NO: 75, VL SEQ ID NO: 76 (antibody, listed as Mus musculus, V domains shown)
VH: B1 VH with Q1R, T31S, T53S, D54G, S68R, R70S, N73D, K75R, M82V, Q99L
VL: KIVMTQSPKSMSVSVGERVSLSCKASEDVGTYVSWYQQKPEQSPKLLIYGSSNRYTGVPDRFTGSGSATDFTLTISSVQAEDLADYSCGQSFTYPTFGTGTKLEIK
binding to CSF-1R fragment delD4 (in words) [1]: no binding was detected; also recorded: did not bind
